Test results taken from ChEMBL document CHEMBL1136743, “Design, synthesis, and biological evaluation of C9- and C2-substituted pyrazolo[4,3-e]-1,2,4-triazolo[1,5-c]pyrimidines as new A2A and A3 adenosine receptors antagonists” (J Med Chem, 2003).

Assays:
Adenosine receptor A2a [1] = biological target: T1, Adenosine receptor A2a (Homo sapiens, UniProt P29274); test: biochemical
Adenosine receptor A2a [2] = biological target: T1, Adenosine receptor A2a; conditions: cho

Row | Structure (SMILES) | Ki (Adenosine receptor A2a [1]) | Ki (Adenosine receptor A2a [2])
1 | Nc1nc2c(cnn2CCc2ccccc2)c2nc(-c3ccc(O)cc3)nn12 | > 1000 nM | 
2 | CCNc1c2c(nc(N)n3nc(-c4ccco4)nc23)nn1C |  | 10 nM
